This is an account of results in patent publication US12636284B2, “Compositions for use in the prevention and/or treatment of intellectual disability and neurodegenerative diseases in a subject with down syndrome” (UNIVERSITA' DEGLI STUDI DI ROMA “LA SAPIENZA”, priority 2021, dated 2026).

Chains of the proteins cited; added tags and fusions are not shown. Lines headed by an entry give the natural chain unless they say otherwise; changes in a name come on top.
UniProt P28843: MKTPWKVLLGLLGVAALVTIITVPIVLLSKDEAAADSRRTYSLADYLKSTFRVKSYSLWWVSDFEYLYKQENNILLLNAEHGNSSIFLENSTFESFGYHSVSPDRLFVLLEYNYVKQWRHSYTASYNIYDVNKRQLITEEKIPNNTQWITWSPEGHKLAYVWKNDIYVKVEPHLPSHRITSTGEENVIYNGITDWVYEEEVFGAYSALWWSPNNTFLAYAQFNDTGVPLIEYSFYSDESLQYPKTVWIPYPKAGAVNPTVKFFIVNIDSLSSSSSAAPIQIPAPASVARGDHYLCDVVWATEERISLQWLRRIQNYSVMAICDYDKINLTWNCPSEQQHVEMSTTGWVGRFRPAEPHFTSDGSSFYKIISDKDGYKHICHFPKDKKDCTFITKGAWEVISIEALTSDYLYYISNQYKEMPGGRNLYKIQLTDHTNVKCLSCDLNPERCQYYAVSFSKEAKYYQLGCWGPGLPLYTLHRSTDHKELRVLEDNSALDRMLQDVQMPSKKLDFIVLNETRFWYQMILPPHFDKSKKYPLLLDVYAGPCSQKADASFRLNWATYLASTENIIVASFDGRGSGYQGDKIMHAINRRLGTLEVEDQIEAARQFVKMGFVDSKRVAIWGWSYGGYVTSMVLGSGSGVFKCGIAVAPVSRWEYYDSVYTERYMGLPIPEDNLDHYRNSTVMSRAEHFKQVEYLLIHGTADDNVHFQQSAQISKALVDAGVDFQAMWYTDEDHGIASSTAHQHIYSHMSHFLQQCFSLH

For assay [1], the target named is DPP4 enzyme (Mus musculus, UniProt P28843). Description: DPP4 enzyme activity in primary hippocampal neurons isolated from Ts2Cje mice.
Assay [2] relates to DPP4 enzyme. As to conditions: end of 21 days intranasal treatment.

As to `Cn1c(=O)cc(N2CCC[C@@H](N)C2)n(Cc2ccccc2C#N)c1=O` [alogliptin], on DPP4 enzyme [1], the “activity of the DPP4 enzyme in Ts2Cje neurons” value is reported as “significant inhibition”.
Regarding `N[C@@H](CC(=O)N1CCn2c(nnc2C(F)(F)F)C1)Cc1cc(F)c(F)cc1F` [sitagliptin, (R)-4-oxo-4-[3-(trifluoromethyl)-5,6-dihydro[1,2,4]triazole[4,3-a]pyrazin-7(8H)-yl]-1-(2,4,5-trifluorophenyl)butan-2-amine], in the assay on DPP4 enzyme [2] (hippocampus), the “DPP4 enzyme activity at the hippocampal level” value is reported as “reduce activation of the DPP4 enzyme at the hippocampal level”. Moreover, the “DPP4 enzyme activity at the peripheral level” value in the assay with DPP4 enzyme [2] (liver and plasma) is listed as “without promoting significant effects at the peripheral level”. For the same compound, at DPP4 enzyme [1], the “activity of the DPP4 enzyme in Ts2Cje neurons” value was “significant inhibition”.
